Literature values as cited in US11338162B2 (priority 2013, dated 2022).

What was measured:
rat = settings: in vivo
rabbit = settings: in vivo, topical or ocular
[1] = tested on: Emerald Shiner (Notropis atherinoides); settings: in vivo
[2] = tested on: Daphnia magna (Water flea); settings: in vivo
[3] = tested on: Fathead Minnow (Pimephales promelas); settings: in vivo

poly(ethyleneglycol) [PEG (200)]
LD50 Oral - rat (rat): 30,200 mg/kg | LD50 Dermal - rabbit (rabbit): >20,000 mg/kg | Toxicity to fish LC50 [1]: >100 µg/mL | Toxicity to daphnia and other aquatic invertebrates LC50 - Daphnia magna (Water flea) [2]: >10,000 mg/l | Toxicity to fish LC50 [3]: >10,000 mg/l
